{"source": "patent US7122524B2", "about": "“Tripeptides and tripeptide derivatives for the treatment of postlesional disease of the nervous system” (Neurotell AG, priority 2002, dated 2006)", "data": [{"smiles": "NCC(=O)N[C@@H](Cc1ccccc1)C(=O)N1CCC[C@H]1C(=O)O", "note": "[H-Gly-Phe-Pro-OH]", "values": [{"measurement": "predicted absorption after peroral application (PAMPA classification)", "result": "weakly absorbed"}]}]}
